Assay results taken from patent US7425339.

Molecular target: Tax HLA-A2/β2m complex, biotinylated (human)
Experiment: SPR (BIAcore 3000), equilibrium fit, biotinylated pMHC on streptavidin chip

Substance	Kd
soluble human CD8αα Gln2→Lys mutant, expressed from pEX106 (from UniProt P01732 1-122) (receptor)	363 µM
soluble human CD8αα Leu97→Tyr mutant, expressed from pEX109 (from UniProt P01732 1-122) (receptor)	630 µM
